{"source": "patent US20220195027A1", "about": "“ANTI-ANGIOGENESIS THERAPY FOR THE TREATMENT OF PREVIOUSLY TREATED BREAST CANCER” (Genentech, Inc., priority 2009, published 2022)", "origin": "cited, not measured here", "key": {"[1]": {"test_system": "HER2 overexpressing metastatic breast cancer", "conditions": "cited from earlier work"}, "[2]": {"test_system": "HER2 overexpressing metastatic breast cancer", "conditions": "222 women, open-label phase II; cited from earlier work"}}}
{"substance": "trastuzumab: recombinant humanized monoclonal antibody directed against HER2", "values": [{"measurement": "Overall response rate and time to progression, result in words", "setting": "[1]; added to chemotherapy vs chemotherapy alone", "result": "significantly improved"}, {"measurement": "overall survival, result in words", "setting": "[1]; added to chemotherapy", "result": "prolonged overall survival"}, {"measurement": "confirmed complete responses", "setting": "[2]", "result": "six"}]}
